Antibody variant affinities, Ab-14 light chain, assay B

The target is the same throughout: PDVDLGDISGINAS, from the HR2 region of SARS-CoV-2 spike.

The variants keep the heavy chain, the linker and the frameworks of Ab-14 (scFv order VH, a 15-residue (Gly4Ser)3 linker, VL).
VH: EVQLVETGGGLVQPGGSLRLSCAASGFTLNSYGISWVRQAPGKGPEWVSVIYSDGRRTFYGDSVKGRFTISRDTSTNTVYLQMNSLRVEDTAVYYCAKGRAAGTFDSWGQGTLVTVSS
VL: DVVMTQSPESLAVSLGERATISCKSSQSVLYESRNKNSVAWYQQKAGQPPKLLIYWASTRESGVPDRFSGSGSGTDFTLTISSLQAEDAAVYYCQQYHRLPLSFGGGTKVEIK

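The parent was found by panning a naive human phage display library on the peptide. These sequences belong to a second round, designed from the earlier measurements on random variants of the parent. Group labels follow the data file (Ctrl: baseline library sampled from a position-specific scoring matrix, with some repeated check sequences; Rand: our label for a block that the file lists under HC and that is probably the random mutants of the ten best first-round binders; En: ensemble of fine-tuned language models; GP: Gaussian process model; HC: hill climbing; Gen: genetic algorithm; Gibbs: Gibbs sampling; a sequence that several methods proposed may carry one label only). The assay is AlphaSeq: two haploid yeast populations carry antibody and antigen on their surface. Binding brings cells together so that they mate, and sequencing counts the barcode pairs among the diploids. Read counts were normalised to the haploid input and turned into Kd by a linear fit to BCL2-family pairs of known affinity, for each replicate. The assay was run in six technical replicates.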

The parent's light chain CDRs are KSSQSVLYESRNKNSVA, WASTRES, QQYHRLPLS; each variant's own CDRs replace them letter for letter. Kd is apparent (estimated from mating counts) and averaged on the log scale over replicates with a signal. Smaller is tighter. "no signal" means that the variant was in the library but no mating with the target was seen in any replicate; the authors take this as a sign of poor binding, and no number exists. The authors averaged sequences with at least three values out of six and counted those with two or fewer as poor binders.

Kd (apparent)	replicates with signal	control signals	CDR-L1	CDR-L2	CDR-L3	group
700 pM	6 of 6	0 of 18	KVQQWQLYESRNKNAVA	NASTRCD	QQYHRLPLS	GP_Gibbs
520 pM	6 of 6	1 of 18	KLEQSVLYESRNKNSVA	NASERES	QQYHRLPLS	GP_Gen
650 pM	6 of 6	0 of 18	KSPQSYPYESRNKNSVA	GASTRES	QQYHRLPLS	GP_HC
68 nM	6 of 6	3 of 18	NLGGEDFQDTRGMAAVA	DVSEVGD	QHYSRLPLS	En_Gibbs
12 nM	6 of 6	1 of 18	KSYQSFLYESRNKNSVA	GASTRES	QNYHRLPLS	GP_HC
1.8 nM	6 of 6	1 of 18	KSPQSVPYESRNKNSVA	NASTRES	QQYHRLPLS	GP_Gen
6.3 nM	6 of 6	0 of 18	MISNVMNTLSRYGNNVA	DLTEREK	QQYFRLPLS	En_Gen
49 nM	1 of 6	0 of 18	KINGVLINNTIDMNAIA	QEHISVL	QQYFHLPLS	En_Gibbs
210 pM	6 of 6	1 of 18	KVSPSYLYESRNKNAVA	EASTRES	QQYHRLPLS	GP_Gen
1.6 nM	6 of 6	3 of 18	KLSWTCTGDLNQMHSVA	ESTVAVD	QQYAHLPLT	En_Gibbs
430 pM	6 of 6	3 of 18	KLSQSFLYESRNKNSVA	DASQRES	QQYHRLPLS	GP_Gen
2.6 nM	6 of 6	0 of 18	KLSQSELYESRNKNSVA	EASERES	QQYHRLPLS	GP_Gen
820 pM	6 of 6	2 of 18	KLSQSVLYESRNPNSVA	NASTRCS	QQYHRLPLS	GP_Gen
22 nM	6 of 6	1 of 18	TISQLMNMGQFAINSVA	QAEIRNA	QQYDRLPLA	En_Gen
1.9 nM	6 of 6	0 of 18	KFSQSVRYESRTKNSVA	NASTRES	QQYHRLPLS	GP_HC
1.5 nM	6 of 6	0 of 18	KQSQSGLCESRNKNSVA	DASTRES	QQYHRLPLS	GP_HC
15 nM	6 of 6	0 of 18	KSSQHVLYESRNKNSVA	SASTRES	QWYHRLPLS	Ctrl
250 nM	2 of 6	0 of 18	KSSQSWLYESRNKNSVT	GASTRES	QQYHRLPVS	Rand
no signal	0 of 6	0 of 18	KSSQSVLYECRNKYSVA	WALTRES	QQYDRLPLS	Ctrl
1.5 nM	6 of 6	2 of 18	KLSQSVLYEERNSNSVA	NASTRES	QQYHRLPLS	GP_Gen
1.0 nM	6 of 6	1 of 18	KFSQSVLYESRNKNSVA	GASHRES	QYIHRLPLS	Ctrl
no signal	0 of 6	0 of 18	HVSQNLTDEMYREYNVA	ETNHVEE	QDYFHLPLI	En_Gibbs
820 pM	6 of 6	0 of 18	KVSQSHLYESRMKNSVA	NASQRES	QQYHRLPLS	GP_Gen
330 nM	4 of 6	1 of 18	ASSQSVLYESRNKNSVA	WASTRES	QQYHHLPLS	Ctrl
1.1 nM	6 of 6	2 of 18	KLSQSVQWESRNGNSVA	AASTRES	QQYHRLPLS	Ctrl
4.4 nM	6 of 6	5 of 18	HVNHEQLDYKNYENNIA	HVSQRLY	QQYSHLPLS	En_Gibbs
no signal	0 of 6	0 of 18	KSSQSVFYESRNKNSVA	WASTRES	QQYHRLPLS	Ctrl
3.1 nM	6 of 6	2 of 18	KQQFSSGGGSRNKNSVA	EASTRCS	QQYHRLPLS	GP_Gibbs
41 nM	6 of 6	0 of 18	NISESMYFQTRNKNNIA	EMSTRER	QHYHRLPLS	En_HC
280 nM	6 of 6	0 of 18	KQSMSVMMGDRNKNSVA	SAHKRMS	QQYHRLPLS	GP_Gibbs
920 pM	6 of 6	0 of 18	KSLQSELYESRNKNSVA	HASTRED	QQYHRLPLS	GP_HC
1.6 nM	6 of 6	2 of 18	KYSQSVGYQSRNKWNVA	NASTRES	QQYHRLPLS	GP_Gibbs
430 pM	6 of 6	0 of 18	KFSQSTLYESRNKNSVA	NAQTRLE	QQYHRLPLS	GP_Gibbs
14 nM	6 of 6	0 of 18	KLSTITGHMSVSKNNVA	EMETREK	QQYDRLPLS	En_Gen
no signal	0 of 6	1 of 18	KSSQSVLYESRNKNSVA	WVSTREM	QQYHRLPFS	Ctrl
1.3 nM	6 of 6	1 of 18	KLSQSWQYESRNKNSVA	NASTRES	QQYHRLPLS	GP_Gen
630 pM	6 of 6	1 of 18	KLSYSVEYQDRNKNSVA	QASQRES	QQYHRLPLS	GP_Gibbs
5.1 nM	6 of 6	0 of 18	KSSQLVLYESRNKNSVA	DASTREP	QQYHLLPLS	Ctrl
1.1 nM	6 of 6	3 of 18	KSSISYLYESANKNSVA	EASQRES	QQYHRLPLS	GP_HC
580 pM	6 of 6	1 of 18	KSDQGDLYESRNKNSVA	GASTRES	QQYHRLPLS	GP_HC
610 pM	6 of 6	2 of 18	KFEQSWLYESRNKNSVA	NASQRLS	QQYHRLPLS	GP_Gen
780 pM	6 of 6	2 of 18	KISQSVLMENRNKNSVA	DASTRES	QQYHRLPLS	GP_HC
22 nM	5 of 6	1 of 18	KLSWLHWYWSRNKNSVA	EASTREQ	QQYHRLPLS	GP_Gibbs
1.1 nM	6 of 6	1 of 18	TISQVMNTLTRNENNVA	DLTEREK	QQYFRLPLS	En_Gen
1.7 nM	6 of 6	1 of 18	KIGATLNTLSHKQNNVA	DLVQREN	QQYFRLPLS	En_Gen
2.0 nM	6 of 6	3 of 18	KFSQSVLYESTTGNSVA	NASTRES	QQYHRLPLS	GP_HC
120 nM	5 of 6	0 of 18	KCSQSVLYESRNKNSVA	WASLRES	QQYHRLPLS	Ctrl
14 nM	6 of 6	0 of 18	MISQSFLIGSRLKNSVA	QTSTRES	QQYDRLPLS	En_HC
940 pM	6 of 6	0 of 18	TLTQSLLMESHNKNSVA	DLSTRGS	QQYHRLPLS	En_HC
900 pM	6 of 6	0 of 18	KFEPSWLYESRNVNSVA	QASQRSD	QQYHRLPLS	GP_Gibbs
1.1 nM	6 of 6	2 of 18	DLTVNDNGISQMESSIA	SGVEKCT	QQYSRLPLA	En_Gibbs
5.2 nM	6 of 6	1 of 18	KIGGVTNGISRAKNSVA	EQSTRED	QQYNRLPLS	En_HC
1.0 nM	6 of 6	0 of 18	KLSPEMEYESRNKASVA	HASTRES	QQYHRLPLS	GP_Gibbs
770 pM	6 of 6	2 of 18	KLSQSWLYESRNKNSVA	EASTREV	QQYHRLPLS	GP_Gen
1.2 nM	6 of 6	1 of 18	KLSGSVEQLSRNKNSVA	HASTREV	QAYHRLPLS	GP_Gibbs
17 nM	6 of 6	1 of 18	HMSMLTLQGMRHMNSVA	QMTTREN	QQYDRLPLA	En_Gen
3.9 nM	6 of 6	1 of 18	KVSQLDDGGSRNKNSVA	HAHTRES	QQYHRLPLS	GP_Gibbs
550 pM	6 of 6	1 of 18	KVSQSNLYESRNKNSVA	QASTRES	QQYHRLPLS	GP_Gen
2.0 nM	6 of 6	0 of 18	KLSQSMLYESRNKNSVA	EASTRCS	QQYHRLPLS	GP_Gen
52 nM	5 of 6	0 of 18	TISQSMLYLSNLKNSVA	QAETREQ	QQYHRLPIS	En_HC
11 nM	6 of 6	0 of 18	KIGMTLNMMMHKKNNVA	DLVTRED	QQYHRLPLS	En_Gen
350 pM	6 of 6	2 of 18	KLSQSQLYESRNKNSVA	QASQRES	QQYHRLPLS	GP_Gen
2.2 nM	6 of 6	0 of 18	KQSQSILGESRNKNSVA	DASTRES	QQYHRLPLS	GP_HC
3.4 nM	6 of 6	1 of 18	TISGMTNQAMSSHNSVA	NVTMRPQ	QQYHRLPLS	En_Gen
1.0 nM	6 of 6	1 of 18	KLSMSFLYESRNKNSVA	GASTRES	QQYHRLPLS	GP_HC
5.0 nM	6 of 6	1 of 18	HMSSLTLGGMRHMNSVA	QMTTREN	QQYDRLPLS	En_Gen
1.6 nM	6 of 6	2 of 18	HISQSIDLESVHKNSIA	DLMTRES	QQYHRLPLS	En_HC
380 nM	3 of 6	0 of 18	YLSMMAANQVNESSSIA	NAEQTYD	QQYHELPLV	En_Gibbs
5.2 nM	6 of 6	0 of 18	TISEVMETLTRHGNNVA	DLAERED	QQYFRLPLS	En_Gen
7.3 nM	2 of 6	0 of 18	MIEIIQDGYDEMRSAIA	DTNLVRM	QQYYRLPLM	En_Gibbs

Extract of 9 entries:

CDR-L1	CDR-L2	CDR-L3	group	Kd (apparent)	replicates with signal	control signals
KISQSVLMENRNKNSVA	DASTRES	QQYHRLPLS	GP_HC	780 pM	6 of 6	2 of 18
NLGGEDFQDTRGMAAVA	DVSEVGD	QHYSRLPLS	En_Gibbs	68 nM	6 of 6	3 of 18
KFEPSWLYESRNVNSVA	QASQRSD	QQYHRLPLS	GP_Gibbs	900 pM	6 of 6	0 of 18
TISQLMNMGQFAINSVA	QAEIRNA	QQYDRLPLA	En_Gen	22 nM	6 of 6	1 of 18
KLSTITGHMSVSKNNVA	EMETREK	QQYDRLPLS	En_Gen	14 nM	6 of 6	0 of 18
KFSQSTLYESRNKNSVA	NAQTRLE	QQYHRLPLS	GP_Gibbs	430 pM	6 of 6	0 of 18
HISQSIDLESVHKNSIA	DLMTRES	QQYHRLPLS	En_HC	1.6 nM	6 of 6	2 of 18
KSSQSVFYESRNKNSVA	WASTRES	QQYHRLPLS	Ctrl	no signal	0 of 6	0 of 18
KLSMSFLYESRNKNSVA	GASTRES	QQYHRLPLS	GP_HC	1.0 nM	6 of 6	1 of 18

The parent sequence was in this pool as ten entries: three were never detected, three once, and four in most replicates, with averages from 2.2 nM to 240 nM. The range of this assay differs from that of the first round, and the authors advise against merging the two. Nonspecific signal, from three strains lacking the peptide, appeared in 4% of pairings of all light chain designs, centred on 430 nM (5% of these signals below 38 nM); values are not corrected for it. The control count says in how many pairings with the empty strains this scFv gave a signal.

Reference: Li et al. 2023, doi:10.1038/s41467-023-39022-2. File: FLAb, binding data.